# Legend:
# [1] = system: αC418W, δS262T, αV249F and WT mice; settings: mouse, in vivo
# [2] = system: αC418W and WT mice
smiles,measurement,setting,value
"CC(C)c1c(C(=O)Nc2ccccc2)c(-c2ccccc2)c(-c2ccc(F)cc2)n1CC[C@@H](O)C[C@@H](O)CC(=O)O [atorvastatin, Atorvastatin calcium]",effect on CMAP decrement,[1],no significant effect
same,voluntary locomotor activity,"[2]; WT mice, treated over 36 days",remained unchanged
same,high velocity or long duration peak of voluntary locomotor activity,"[2]; αC418W mice, over 36 days of treatment, particularly at 18 and 36 days",progressively decrease in frequency

# Source: patent US20140005281A1, “Method of Predicting Increased Risk of Suffering Statin-induced Adverse Drug Reactions” (priority 2012, published 2014)
